PubChem BioAssay AID1347041 (National Center for Advancing Translational Sciences (NCATS), 2019)
Only a part is listed here, and it is no random draw. Activity calls are given as the source filed them. Cut-off read from the data, not from the text of the source: active = activity change below about -30%; inconclusive = mostly about -25% to -30%; inactive = weaker than that.

Molecular target: L-lactate dehydrogenase A chain (Homo sapiens) (UniProt P00338)
Assay: qHTS assay for inhibitors of human lactate dehydrogenase;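 note: values are at about 110 or 230 µM; plate controls were DMSO wells for no effect and wells without enzyme for full effect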
Conditions: purified LDHA, NADH/diaphorase-resazurin fluorescence; hits give low values
Source text: LDH is a key glycolytic enzyme that catalyzes the final step in the glycolytic pathway, reducing pyruvate to lactate and regenerating NAD+ equivalents necessary for continued glycolysis. LDHA has been linked to the carcinogenesis and malignancy in numerous forms of cancers and many other diseases. Consequently, both pharma and academia have invested in significant research efforts to identify small molecule therapeutics. Such attempts have been stalled or abandoned due to limited success in discovering potent and drug-like inhibitors that can be utilized to validate LDHA in vivo as a drug target, a necessary step toward advancing such a molecule towards the clinic Towards this goal we designed and performed a quantitative high-throughput screening (qHTS) campaign to discover novel compounds that are potent inhibitors of LDHA enzyme activity and cancer cell line growth.
The assay was optimized to 1536-well plates. Briefly, 3 µL of human lactate dehydrogenase 5 (#A38558H, Meridian Life Science, Inc., Memphis, TN) in LDH assay buffer (200 mM Tris HCl pH 7.4, 100 microM EDTA and 0.01% Tween-20) was added to a black solid bottom 1536-well assay plate (Greiner Bio-One) using a BioRAPTR FRD dispenser (Beckman Coulter, Brea, CA). A 1536-well pintool dispenser outfitted with 20 nL pins (Wako Automation, San Diego, CA) was used to transfer 23 nL of DMSO-solubilized compound (both library and vehicle controls) to each 1536-well assay plate. Following compound transfer, 1 µL of substrate solution containing NADH and sodium pyruvate (Sigma-Aldrich, St. Louis, MO) in LDH assay buffer was dispensed via BioRAPTR FRD to initiate the reaction. Final concentrations in the 4 microL reaction volume were 2 nM LDHA enzyme, 0.06 mM NADH and 0.2 mM sodium pyruvate. Following a 5 minute incubation period at room temperature, 1 µL of detection reagent (C. kluyveri diaphorase (Sigma-Aldrich) and resazurin sodium salt (Sigma-Aldrich) in LDH assay buffer) was added to a total volume of 5 µL. Final concentrations of detection reagents were 0.133 mg/mL diaphorase and 37 µM resazurin. Plates were immediately transferred to a ViewLux microplate imager (PerkinElmer, Waltham, MA), and any resulting resorufin fluorescence was measured (ex540, em590 nm) at 0 and 20 minutes. Fluorescence was normalized using enzyme-free and DMSO-treated control wells on each plate.

SMILES	activity change
CP(=S)(Nn1cnnc1)Oc1ccccc1 (configuration not stated)	inactive: -0.957%
CP(=O)(Nc1ccccc1Br)Oc1ccccc1 (configuration not stated)	inactive: -2.21%
COc1ccccc1OP(C)(=O)Nc1ccccc1 (configuration not stated)	inactive: -7.83%
O=[N+]([O-])c1cc([N+](=O)[O-])c(O)c([N+](=O)[O-])c1.c1ccc(Oc2ccncc2)cc1	inactive: -7.48%
CCOC(=O)c1ccc(NP(C)(=O)Oc2ccc(OC)cc2)cc1 (configuration not stated)	inactive: -2.63%
CCOP(C)(=S)SCC(=O)NC(C)C(=O)O (configuration not stated)	inactive: -5.85%
CP(=O)(Nc1ccccn1)Oc1ccc(Cl)cc1 (configuration not stated)	inactive: -5.69%
CP(=O)(Oc1ccccc1)OC(c1ccccc1)C(F)(F)F (configuration not stated)	inactive: -9.74%
CP(=O)(Nc1ccc(SC(F)(F)F)cc1)Oc1ccc(Cl)cc1 (configuration not stated)	inactive: 3.29%
Cc1cccc(C)c1OP(C)(=O)Nc1ccc(SC(F)(F)F)cc1 (configuration not stated)	inactive: 0.272%
Cc1cc(C)cc(OP(C)(=O)Nc2ccc(SC(F)(F)F)cc2)c1 (configuration not stated)	inactive: 2.85%
CCc1ccc(OP(C)(=O)N2CCN(c3ccc([N+](=O)[O-])cc3)CC2)cc1 (configuration not stated)	inactive: -10.7%
CP(=O)(NC(=O)Nc1ccccc1)Oc1ccccc1 (configuration not stated)	inactive: -0.177%
COc1ccccc1-c1ccccn1.O=[N+]([O-])c1cc([N+](=O)[O-])c(O)c([N+](=O)[O-])c1	inactive: -3.5%
CCN(CC)CCCOC(=O)C(O)(c1ccccc1)c1ccccc1	inactive: -2.82%
Cc1ccc(NP(C)(=O)Oc2ccccc2)c(C)c1 (configuration not stated)	inactive: -5.08%
COc1ccccc1OP(C)(=O)Nc1ccc(C)cc1 (configuration not stated)	inactive: -3.95%
CCOC(=O)c1ccc(NP(C)(=O)Oc2ccccc2)cc1 (configuration not stated)	inactive: -5.1%
Cc1cc(C)cc(OP(C)(N)=O)c1 (configuration not stated)	inactive: 4.11%
COc1ccc(OP(C)(=O)Nc2cccc(F)c2)cc1 (configuration not stated)	inactive: 1.42%
COc1ccccc1OP(C)(=O)Nc1cc(Cl)ccc1C (configuration not stated)	inactive: 2.68%
O=[N+]([O-])c1cc([N+](=O)[O-])c(Nc2cccnc2)c([N+](=O)[O-])c1	inactive: 7.49%
O=[N+]([O-])c1ccc2c(c1)C=Nc1ccccc1O2	inactive: 5%
Cc1cccc(C)c1OP(C)(N)=O (configuration not stated)	inactive: -2.99%
CC(C)(C)c1ccc(OP(C)(=O)Nc2ccc(SC(F)(F)F)cc2)cc1 (configuration not stated)	inactive: 3.48%
CC1=NCCc2c1[nH]c1ccccc21.O=[N+]([O-])c1cc([N+](=O)[O-])c(O)c([N+](=O)[O-])c1	inactive: 1.01%
Cc1ccc(C)c(NP(C)(=O)Oc2ccccc2)c1 (configuration not stated)	inactive: -0.604%
